GFP activation data for 22 compounds are collected here from PubChem BioAssay AID1865 (National Center for Advancing Translational Sciences (NCATS), 2009).

The structures appear in SMILES notation. This is a selection; strong and weak results do not stand in their true shares. Some results for these compounds are left out of this collection, so the calls shown say nothing about other tests. The source made the active and inactive calls. Calls come from the whole dose curve; as a rule, active = well fitted activation curve with a large enough effect; inconclusive = small, poorly fitted or top-dose-only effect; inactive = flat fitted curve, though single readings scatter.

This test can be described thus: Quantitative High-Throughput Screen for Regulators of Epigenetic Control. Note: % of control where 0% means no effect; nearly all actives have a fitted effect of over 60% in size. The following applies: murine LDR cells, GFP reporter derepression, 30 h; at 53.9 µM (top of the series). The source says:
NIH Molecular Libraries Screening Centers Network [MLPCN] NIH Chemical Genomics Center [NCGC] MLSCN Grant: 1 X01 MH079860-01 Assay Provider: Elisabeth D. Martinez, University of Texas SW Medical Center NCGC Assay Overview: The Locus Derepression (LDR) assay detects the derepression or induction of a GFP reporter that is stably integrated in a genomic region of murine cells that is presumably silenced. Transcription of the GFP reporter is controlled by a CMV promoter, which normally is constitutively active. However, this cell line, termed LDR, was selected for lack of constitutive production of GFP. GFP production can be induced by incubating the cells with histone deacetylase or DNA methyltransferase inhibitors (Martinez et al., 2006). Compounds that derepress or induce this reporter locus are identified by enumerating GFP positive cells using a laser-scanning microplate cytometer (Auld et al., 2006). This assay was screened against the MLSMR earlier (AID 597; (Johnson et al., 2008) and has been rescreened here against the expanded collection.
NCGC Assay Protocol Summary: Three hundred LDR cells in 5 uL per well were dispensed into black, clear-bottom 1536-well plates. Twenty-three nL compound was transferred to the assay plate and cells were incubated 30 hours at 37 C. Medium was removed, cells were washed two times with PBS, and GFP-positive cells were enumerated as fluorescent objects between the sizes of 20 to 120 um width and depth using an Acumen Explorer. References Auld, DS, Johnson, RL, Zhang, YQ, Veith, H, Jadhav, A, Yasgar, A, Simeonov, A, Zheng, W, Martinez, ED, Westwick, JK, Austin, CP, Inglese, J (2006). Fluorescent protein-based cellular assays analyzed by laser-scanning microplate cytometry in 1536-well plate format. Methods Enzymol 414: 566-89. Johnson, RL, Huang, W, Jadhav, A, Austin, CP, Inglese, J, Martinez, ED (2008). A quantitative high-throughput screen identifies potential epigenetic modulators of gene expression. Anal Biochem 375: 237-48. Martinez, ED, Dull, AB, Beutler, JA, Hager, GL (2006). High-content fluorescence-based screening for epigenetic modulators. Methods Enzymol 414: 21-36.
On to `O=C(NCC1(N2CCCCC2)CCCCC1)c1cc([N+](=O)[O-])ccc1Cl`, for which the GFP activation was inactive: -0.0337%.

Turning to `CN(C)C1(CNC(=O)c2ccccc2F)CCCCC1`, the GFP activation is inactive: -1.61%.

As for `CC(C)N1C(=O)CC2(CCN(CCOC(=O)C(O)(c3ccccc3)c3ccccc3)CC2)C1=O`, the GFP activation was inactive: -0.813%.

As for `CN(C)C1(CNC(=O)c2cccc(Cl)c2)CCCCC1`, the GFP activation was inactive: 0%.

As to `CCN(CC)CC(C)C(C)OC(=O)C(O)(c1ccccc1)c1ccccc1` (configuration not stated), the GFP activation is inactive: -0.452%.

As to `CCCCOc1ccccc1C(=O)NCC1(N(C)C)CCCCC1`, the GFP activation is inactive: -0.78%.

For the compound `CN(C)C1CCCC1OC(=O)C(O)(c1ccccc1)c1ccccc1` (configuration not stated), the GFP activation is inactive: -0.99%.

In the case of `Cc1ccccc1C(=O)NCC1(N2CCCCC2)CCCCC1`, the GFP activation is inactive: 2.6%.

`CN(C)C1(CNC(=O)c2ccccc2[N+](=O)[O-])CCCCC1`: the GFP activation is inactive: 0%.

As to `CCN1CCCC(OC(=O)C2(O)c3ccccc3C=Cc3ccccc32)C1` (configuration not stated), the GFP activation is inactive: -0.956%.

`CCOc1cccc(C(=O)NCC2(N(C)C)CCCCC2)c1`: the GFP activation was inactive: -0.549%.

Take `C=CCN1CCN(CCOC(=O)C(O)(c2ccccc2)c2ccccc2)CC1`: the GFP activation was inactive: 1.05%.

Take `COc1ccc(C(=O)NCC2(N(C)C)CCCCC2)cc1Cl`: the GFP activation was inactive: -3.23%.

Turning to `COc1cccc(C(=O)NCC2(N3CCCCC3)CCCCC2)c1`, the GFP activation was inactive: -1.5%.

Turning to `CC(C)COc1ccc(C(=O)NCC2(N(C)C)CCCCC2)cc1`, the GFP activation is inactive: -3.23%.

In the case of `O=C(OC1CN2CCC1CC2)C(CO)(c1ccccc1)c1ccccc1` (configuration not stated), the GFP activation is inactive: -0.848%.

In the case of `COc1cccc(C(=O)NCC2(N3CCOCC3)CCCCC2)c1`, the GFP activation was inactive: -3.23%.

With `CN(C)c1cccc(C(=O)NCC2(N(C)C)CCCCC2)c1`, the GFP activation was inactive: 3.98%.

Regarding `CC(C)Oc1ccc(C(=O)NCC2(N(C)C)CCCCC2)cc1`, the GFP activation is inactive: 0%.

With `COc1ccc(Br)c(C(=O)NCC2(N3CCCCC3)CCCCC2)c1`, the GFP activation was inactive: 5.8%.

As for `Cc1cccc(C(=O)NCC2(N(C)C)CCCCC2)c1`, the GFP activation was inactive: 2.45%.

`COc1cc(C(=O)NCC2(N(C)C)CCCCC2)cc(OC)c1OC`: the GFP activation is inactive: -2.16%.
